Assay results published in ChEMBL document CHEMBL3638566, “Benzenesulfonamide compounds, method for synthesizing same, and use thereof in medicine as well as in cosmetics” (2014).
pIC50: −log10 of the molar value.

Sequences of proteins named here, by UniProt entry; tags and fusion partners are left off. A change or cut given only in a name is not applied to a line headed by its entry.
UniProt P78536: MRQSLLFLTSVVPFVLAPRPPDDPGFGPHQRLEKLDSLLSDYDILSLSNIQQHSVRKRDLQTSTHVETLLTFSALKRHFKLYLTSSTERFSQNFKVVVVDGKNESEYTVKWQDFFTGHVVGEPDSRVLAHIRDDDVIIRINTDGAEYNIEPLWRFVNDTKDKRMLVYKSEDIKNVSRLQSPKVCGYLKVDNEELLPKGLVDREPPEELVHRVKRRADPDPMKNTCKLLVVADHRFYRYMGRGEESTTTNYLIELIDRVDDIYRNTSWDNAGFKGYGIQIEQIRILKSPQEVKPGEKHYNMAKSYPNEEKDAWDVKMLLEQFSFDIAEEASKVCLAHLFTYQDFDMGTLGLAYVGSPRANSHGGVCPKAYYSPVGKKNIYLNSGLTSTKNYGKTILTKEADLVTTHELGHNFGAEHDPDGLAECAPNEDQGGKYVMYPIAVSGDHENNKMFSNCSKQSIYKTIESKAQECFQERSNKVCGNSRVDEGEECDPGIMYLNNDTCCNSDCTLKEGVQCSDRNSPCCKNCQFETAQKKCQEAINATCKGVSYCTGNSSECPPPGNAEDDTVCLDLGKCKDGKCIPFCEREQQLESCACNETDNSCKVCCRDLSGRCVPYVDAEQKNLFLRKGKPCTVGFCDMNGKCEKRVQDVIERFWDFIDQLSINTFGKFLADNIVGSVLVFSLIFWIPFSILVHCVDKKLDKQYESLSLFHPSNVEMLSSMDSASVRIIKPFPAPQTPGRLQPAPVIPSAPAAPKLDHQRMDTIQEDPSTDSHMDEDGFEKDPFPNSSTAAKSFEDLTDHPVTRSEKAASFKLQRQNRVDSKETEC

Target: Disintegrin and metalloproteinase domain-containing protein 17 (Homo sapiens, UniProt P78536)
Assay: The substrate is used at 40 μM.

**Q.** How did the pIC50 turn out when `CC#CCOc1ccc(S(=O)(=O)N(C)CC(C(=O)NO)N2CCN(S(C)(=O)=O)CC2)cc1` (stereo unspecified) was run?
**A.** 7.06
